The list shows a part of the results, in another mix than the full data. Active and inactive are the calls of the source. Cut-off read from the data, not from the text of the source: active = inhibition above about 32%; inactive = the rest.

The assay is described as follows: TEAD-YAP interaction inhibition, primary screen, TEAD-YAP interaction inhibitor project, luminescence, HEK-TIYL cells (AID 1259422).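 Note: 0% = median of test compound wells and 100% = reference inhibitor wells.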 The note with it: TEAD-Gal4/YAP UAS-luciferase luminescence, at 9.12 µM, active compounds read high.
Turning to `CC(=O)N(Cc1ccco1)C1CCN(CCc2cccs2)CC1`, the inhibition – broadly, the change of the read-out against control, counted positive when it falls – is inactive: 3.91%.

`Nc1c([N+](=O)[O-])cc(C(=O)c2cc([N+](=O)[O-])c(N)c([N+](=O)[O-])c2)cc1[N+](=O)[O-]`: the inhibition is inactive: -13.5%.

Consider `CCOc1ccc(NC(=O)c2cc([N+](=O)[O-])cc([N+](=O)[O-])c2)c([N+](=O)[O-])c1`, for which the inhibition was inactive: 0.4%.

With `ClC(Cl)(Cl)C1=NP2(=NC(c3ccccc3)=N1)OCCCO2`, the inhibition is inactive: 4.18%.

Regarding `CCN/N=C/c1c([N+](=O)[O-])cc([N+](=O)[O-])cc1[N+](=O)[O-]`, the inhibition was inactive: 2.01%.

For the molecule `CC(C)OP(=O)(OC(C)C)N1CCCCC1`, the inhibition was inactive: -0.74%.

Take `CCOc1ccc(S(=O)(=O)N(CCCl)CCCl)cc1`: the inhibition was inactive: -3.09%.

In the case of `O=C(OC1CN2CCC1CC2)c1cccc(Cl)c1` (stereo not drawn), the inhibition is inactive: 14.7%.

With `CCOC(=O)C(C)NC(=O)CSP(=O)(OCC)OCC` (stereo not drawn), the inhibition is inactive: 14.1%.

Take `COC(=O)N(c1ccccc1)P1OCC(C)O1` (stereo not drawn): the inhibition is inactive: -1.25%.

As to `Nc1nonc1OCc1nonc1COc1nonc1N`, the inhibition is inactive: 0.39%.

As to `CC(C)NC(=O)N(Cc1cccnc1)C1CCN(CCc2cccs2)CC1`, the inhibition is inactive: -4.18%.

As to `O=[N+]([O-])c1ccc(N/N=C/C=C/c2ccc([N+](=O)[O-])o2)c([N+](=O)[O-])c1`, the inhibition is inactive: 12.8%.

Take `COc1ccc(S(=O)(=O)N(CCCl)CCCl)cc1`: the inhibition was inactive: -5.13%.

For the molecule `COc1ccc(CCN2CCC(N(Cc3ccco3)C(=O)c3cccc(C#N)c3)CC2)cc1`, the inhibition is inactive: 0.43%.

Turning to `Cc1ccc(NP(=O)(OCC(C)C)OCC(C)C)nc1`, the inhibition is inactive: 4.66%.

Consider `O=C(N/N=C/c1ccc([N+](=O)[O-])o1)c1cc([N+](=O)[O-])cc([N+](=O)[O-])c1`, for which the inhibition was inactive: 4.05%.

With `CCOP(=O)(Nc1cccc(F)c1)OCC`, the inhibition is inactive: 7.04%.

`CNC(=O)c1nsnc1NCCCl`: the inhibition was inactive: 5.25%.

Consider `CC1Cc2ccccc2N1C(=O)COC(=O)C(O)(c1ccccc1)c1ccccc1` (stereo not drawn), for which the inhibition was inactive: -14.1%.

For the molecule `O=P(/C=C(\Cl)c1ccccc1)(/C=C(\Cl)c1ccccc1)Nc1nncs1`, the inhibition was inactive: -1.21%.

Take `CC(C)NC(=O)N(Cc1ccco1)C1CCN(CCc2cccs2)CC1`: the inhibition was inactive: -12.5%.

Regarding `O=C(Nc1cccc(F)c1)N(Cc1ccco1)C1CCN(CCc2ccccn2)CC1`, the inhibition is inactive: 0.04%.

Turning to `BrCC1Cn2c(nnc2-c2cccnc2)S1` (stereo not drawn), the inhibition was inactive: -1.6%.

Take `COc1ccc(/C=C2/C(=O)NC(=O)N(Cc3ccco3)C2=O)c(OC)c1`: the inhibition was inactive: -1.88%.

`O=C(Nc1c(Cl)cc([N+](=O)[O-])cc1[N+](=O)[O-])c1ccc([N+](=O)[O-])cc1`: the inhibition was active: 56%.

As to `COc1ccccc1OP(=O)(Nc1ccccn1)Oc1ccccc1OC`, the inhibition is inactive: 27.9%.

With `CCc1cc2c[n+](C3CCCCC3)sc2s1`, the inhibition is inactive: -4.65%.

`CC(=O)OC1CN2CCC1C(c1ccccc1)C2` (stereo not drawn): the inhibition was inactive: 0.01%.

Turning to `O=[N+]([O-])c1cc([N+](=O)[O-])c(NCCCO)c([N+](=O)[O-])c1`, the inhibition was inactive: -15.2%.

On to `C/C(=N\Nc1ccc([N+](=O)[O-])cc1[N+](=O)[O-])c1ccc([N+](=O)[O-])cc1`, for which the inhibition was inactive: 10.8%.

Consider `O=C(Nc1cccc(F)c1)N(Cc1ccco1)C1CCN(CCc2cccs2)CC1`, for which the inhibition was inactive: -1.95%.

As to `O=C(COc1ccccc1[N+](=O)[O-])N/N=C/c1cc([N+](=O)[O-])cc([N+](=O)[O-])c1O`, the inhibition is inactive: -6.68%.

As for `O=C(COC(=O)C(O)(c1ccccc1)c1ccccc1)NCCN1C(=O)CSC1=O`, the inhibition was inactive: 7.74%.

As for `O=[N+]([O-])c1ccc(NCCCCNc2ccc([N+](=O)[O-])cc2[N+](=O)[O-])c([N+](=O)[O-])c1`, the inhibition was inactive: -2.12%.

As to `CCOP1(=O)O/C(=C\Cl)CN1c1ccccc1` (stereo not drawn), the inhibition was inactive: 3.7%.

As to `O=C(NNC1=NCC(CBr)S1)c1ccccc1` (stereo not drawn), the inhibition is inactive: 12.2%.

Regarding `CCOC(=O)c1ccc(NC2=NCC(CBr)S2)cc1` (stereo not drawn), the inhibition was inactive: -26%.

For `Cc1ccc2nc(NCCCl)[nH]c2c1`, the inhibition was inactive: -36.7%.

Consider `CCOP(=O)(OCC)C(NC(=O)OC)C(Cl)(Cl)Cl` (stereo not drawn), for which the inhibition is inactive: 4.48%.

Take `O=P1(Nc2nncs2)C=C(c2ccccc2)SC(c2ccccc2)=C1`: the inhibition is inactive: 4.42%.

For `CN(C)c1ccc(/[N+]([O-])=C/c2c([N+](=O)[O-])cc([N+](=O)[O-])cc2[N+](=O)[O-])cc1`, the inhibition was inactive: -5.97%.

For `CNc1c([N+](=O)[O-])cc([N+](=O)[O-])c2nonc12`, the inhibition was inactive: -1.02%.

Consider `Cc1cc(NC2=NC3C(C(=O)N(C)C(=O)N3C)N2C)n(-c2ccccc2)n1` (stereo not drawn), for which the inhibition is inactive: 3.87%.

Consider `O=[N+]([O-])c1cc([N+](=O)[O-])c(N(CC(O)CO)c2ccccc2)c([N+](=O)[O-])c1` (stereo not drawn), for which the inhibition is inactive: 0.86%.

For `CCOP(=O)(OCC)C(OC(=O)C(Cl)(Cl)Cl)=C(Cl)Cl`, the inhibition is inactive: -1.33%.

Consider `O=C(c1cccnc1)N(Cc1ccco1)C1CCN(CCc2ccccn2)CC1`, for which the inhibition was inactive: -6.06%.

As to `COC(=O)C(CC(C)C)NC(=O)NP(=O)(Oc1ccccc1)Oc1ccccc1` (stereo not drawn), the inhibition was inactive: 1.59%.

As for `Cc1ccc([N+](=O)[O-])c2no[n+]([O-])c12`, the inhibition is inactive: -3.09%.

In the case of `O=P1(Nc2nc3ccc(Cl)cc3s2)COc2ccccc2O1` (stereo not drawn), the inhibition was inactive: -0.47%.

`COc1ccc([N+](=O)[O-])cc1NC(=O)c1ccc([N+](=O)[O-])cc1[N+](=O)[O-]`: the inhibition is inactive: 1.74%.

In the case of `CC(=O)N(Cc1ccco1)C1CCN(CCc2ccccn2)CC1`, the inhibition was inactive: 1.78%.

With `O=c1c2cc([N+](=O)[O-])ccc2[nH]c2c([N+](=O)[O-])cc([N+](=O)[O-])cc12`, the inhibition is inactive: 16.4%.

On to `O=C(c1ccco1)N(Cc1cccnc1)C1CCN(CCc2ccccn2)CC1`, for which the inhibition is inactive: -1.58%.

`CC(=O)O[C@H]1CN2CCC1[C@@H](c1ccccc1)C2` (stereo partly drawn): the inhibition is inactive: 1.14%.

As for `CCOP(=S)(NN(CCCl)c1ccccc1)OCC`, the inhibition is active: 40.1%.

Regarding `O=C(COC(=O)C(O)(c1ccccc1)c1ccccc1)NC12CC3CC(CC(C3)C1)C2`, the inhibition is inactive: -9.96%.

`O=C(NNc1ccc([N+](=O)[O-])cc1[N+](=O)[O-])c1cccc([N+](=O)[O-])c1`: the inhibition was inactive: 19.4%.

With `O=C(c1cccc([N+](=O)[O-])c1)c1ccc([N+](=O)[O-])c([N+](=O)[O-])c1`, the inhibition is inactive: -5.49%.

`ClC1CSc2nc3ccccc3n2C1` (stereo not drawn): the inhibition was inactive: 1.43%.

Turning to `O=[N+]([O-])c1ccc(N/N=C/c2ccc([N+](=O)[O-])o2)c([N+](=O)[O-])c1`, the inhibition was inactive: 4.87%.

Turning to `O=P1(c2ccccc2)N=C(c2ccccc2)NC(C(Cl)(Cl)Cl)=N1` (stereo not drawn), the inhibition was inactive: -4.77%.

Consider `COC(=O)N(c1ccccc1)P1(=S)OCC(C)O1` (stereo not drawn), for which the inhibition was inactive: 14.8%.

For `CCOP(=O)(OCC)C(=O)c1ccccc1I`, the inhibition is inactive: -2.39%.

Regarding `O=C(Nc1cccc(F)c1)N(Cc1cccnc1)C1CCN(CCc2cccs2)CC1`, the inhibition is inactive: 3.94%.

With `CC(C)OP(=O)(OC(C)C)C(C)N` (stereo not drawn), the inhibition was inactive: 8.86%.

Regarding `CN(C)c1ccc2c(c1)N1Cc3ccccc3C1=NP2(=O)c1ccccc1` (stereo not drawn), the inhibition is inactive: 7.76%.

`Cc1c([N+](=O)[O-])cc(C(=O)c2cc([N+](=O)[O-])c(C)c([N+](=O)[O-])c2)cc1[N+](=O)[O-]`: the inhibition was inactive: 2.77%.
